Source: patent publication US6936585B2, “Corticotropin releasing factor 2 receptor agonists” (priority 2002, dated 2005)

Key:
CRF1R = target: T1, CRF1R (Homo sapiens, UniProt P34998); assay: CRF1R agonist activation (EC50 / Emax), called comparative CRF binding; assay type: cell-based; settings: for Emax: read-out: CRF1R Emax
T1 sequence (P34998 24-415): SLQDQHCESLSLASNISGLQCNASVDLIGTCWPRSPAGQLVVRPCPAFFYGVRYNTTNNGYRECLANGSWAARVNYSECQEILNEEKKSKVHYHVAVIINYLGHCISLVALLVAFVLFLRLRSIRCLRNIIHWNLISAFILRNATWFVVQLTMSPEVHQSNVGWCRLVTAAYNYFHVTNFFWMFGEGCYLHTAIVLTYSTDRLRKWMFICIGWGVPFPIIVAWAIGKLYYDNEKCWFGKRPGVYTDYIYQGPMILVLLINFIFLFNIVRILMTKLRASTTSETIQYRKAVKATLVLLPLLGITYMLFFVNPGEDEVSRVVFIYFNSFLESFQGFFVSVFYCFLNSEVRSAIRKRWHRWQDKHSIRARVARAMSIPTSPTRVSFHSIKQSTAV
Procedure, shortened: (§1)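 Peptides are tested on cells bearing CRF1R or CRF2R, full length or as ligand-binding-domain constructs coupled to reporters or G proteins. Activation is scored by cAMP rise, measured in lysates or by CRE-reporter output, against vehicle control.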

CRF2R = target: T2, CRF2R (Homo sapiens, UniProt Q13324); assay: CRF2R agonist activation (EC50 / Emax), called comparative CRF binding; assay type: cell-based; settings: for Emax: read-out: CRF2R Emax
T2 sequence (Q13324 1-411): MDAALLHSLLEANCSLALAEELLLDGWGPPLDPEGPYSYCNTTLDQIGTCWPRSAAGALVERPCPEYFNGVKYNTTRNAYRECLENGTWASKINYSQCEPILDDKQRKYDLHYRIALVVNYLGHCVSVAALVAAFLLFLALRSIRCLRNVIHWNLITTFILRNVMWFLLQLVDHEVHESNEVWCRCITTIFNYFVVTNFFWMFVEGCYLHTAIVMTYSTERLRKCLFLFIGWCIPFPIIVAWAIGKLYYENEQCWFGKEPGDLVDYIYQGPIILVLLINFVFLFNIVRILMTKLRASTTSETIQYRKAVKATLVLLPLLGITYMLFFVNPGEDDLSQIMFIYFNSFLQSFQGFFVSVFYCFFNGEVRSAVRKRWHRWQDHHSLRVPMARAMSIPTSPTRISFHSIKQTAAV
Procedure, shortened: as §1

SMILES	Emax (CRF1R)	Emax (CRF2R)	EC50 (CRF1R; CRF1R EC50)	EC50 (CRF2R)
CC[C@H](C)[C@H](NC(=O)[C@H](CCC(=O)O)NC(=O)[C@@H](NC(=O)[C@H](CCSC)NC(=O)[C@H](CCCCN)NC(=O)[C@H](CCCNC(=N)N)NC(=O)[C@H](CC(C)C)NC(=O)[C@H](CC(C)C)NC(=O)[C@H](Cc1c[nH]cn1)NC(=O)[C@H](CC(C)C)NC(=O)[C@@H]1CCCN1C(=O)[C@H](CC(C)C)NC(=O)[C@H](CC(=O)O)NC(=O)[C@@H](NC(=O)[C@H](CO)NC(=O)[C@@H](NC(=O)[C@@H]1CCCN1C(=O)[C@@H]1CCCN1C(=O)CNC(=O)[C@@H]1CCC(=O)N1)[C@@H](C)CC)[C@@H](C)CC)[C@@H](C)CC)C(=O)N[C@@H](CCC(=O)O)C(=O)N[C@@H](CCCCN)C(=O)N[C@@H](CCC(N)=O)C(=O)N[C@@H](CCC(=O)O)C(=O)N[C@@H](CCCCN)C(=O)N[C@@H](CCC(=O)O)C(=O)N[C@@H](CCCCN)C(=O)N[C@@H](CCC(N)=O)C(=O)N[C@@H](CCC(N)=O)C(=O)N[C@@H](C)C(=O)N[C@H](C(=O)N[C@H](C(=O)N[C@@H](CC(N)=O)C(=O)N[C@@H](C)C(=O)N[C@@H](CCCNC(=N)N)C(=O)N[C@@H](CC(C)C)C(=O)N[C@@H](CC(C)C)C(=O)N[C@@H](CC(=O)O)C(=O)N[C@H](C(=O)N[C@H](C(N)=O)C(C)C)[C@@H](C)O)[C@@H](C)O)[C@@H](C)O [compound 238]	88%	100%		
CC[C@H](C)[C@H](NC(=O)[C@@H](NC(=O)[C@H](CC(=O)O)NC(=O)[C@H](CC(C)C)NC(=O)[C@H](CC(C)C)NC(=O)[C@H](CC(C)C)NC(=O)[C@H](CCCNC(=N)N)NC(=O)[C@H](CC(N)=O)NC(=O)[C@H](CC(N)=O)NC(=O)[C@H](C)NC(=O)[C@H](C)NC(=O)[C@H](CCC(N)=O)NC(=O)[C@H](CCC(N)=O)NC(=O)[C@H](CCCCN)NC(=O)[C@H](CCC(=O)O)NC(=O)[C@H](CCCCN)NC(=O)[C@H](CCC(=O)O)NC(=O)[C@H](CCC(N)=O)NC(=O)[C@H](CCCCN)NC(=O)[C@H](CCC(=O)O)NC(=O)[C@@H](NC(=O)[C@H](CCC(=O)O)NC(=O)[C@@H](NC(=O)[C@H](CCSC)NC(=O)[C@H](CCCCN)NC(=O)[C@H](CCCNC(=N)N)NC(=O)[C@H](CC(C)C)NC(=O)[C@H](CC(C)C)NC(=O)[C@H](CCCNC(=N)N)NC(=O)[C@@H](NC(=O)[C@@H]1CCCN1C(=O)[C@H](CC(C)C)NC(=O)[C@H](CC(=O)O)NC(=O)[C@@H](NC(=O)[C@H](CO)NC(=O)[C@@H](NC(=O)[C@@H]1CCCN1C(=O)[C@@H]1CCCN1C(=O)CNC(=O)[C@@H]1CCC(=O)N1)[C@@H](C)CC)[C@@H](C)CC)[C@@H](C)O)[C@@H](C)CC)[C@@H](C)CC)[C@@H](C)O)C(N)=O [compound 60]	8%	44%		
CC[C@H](C)[C@H](NC(=O)[C@@H](NC(=O)[C@H](CC(=O)O)NC(=O)[C@H](CC(C)C)NC(=O)[C@H](CC(C)C)NC(=O)[C@H](CC(C)C)NC(=O)[C@H](CCCNC(=N)N)NC(=O)[C@H](CC(N)=O)NC(=O)[C@H](CC(N)=O)NC(=O)[C@H](C)NC(=O)[C@H](C)NC(=O)[C@H](CCC(N)=O)NC(=O)[C@H](CCC(N)=O)NC(=O)[C@H](CCCCN)NC(=O)[C@H](CCC(=O)O)NC(=O)[C@H](CCCCN)NC(=O)[C@H](CCC(=O)O)NC(=O)[C@H](CCC(N)=O)NC(=O)[C@H](CCCCN)NC(=O)[C@H](CCC(=O)O)NC(=O)[C@@H](NC(=O)[C@H](CCC(=O)O)NC(=O)[C@@H](NC(=O)[C@H](CCSC)NC(=O)[C@H](CCCCN)NC(=O)[C@H](CCCNC(=N)N)NC(=O)[C@H](CC(C)C)NC(=O)[C@H](CC(C)C)NC(=O)[C@H](Cc1ccccc1)NC(=O)[C@H](CC(C)C)NC(=O)[C@@H]1CCCN1C(=O)[C@H](CC(C)C)NC(=O)[C@H](CC(=O)O)NC(=O)[C@@H](NC(=O)[C@H](CO)NC(=O)[C@@H](NC(=O)[C@@H]1CCCN1C(=O)[C@@H]1CCCN1C(=O)CNC(=O)[C@@H]1CCC(=O)N1)[C@@H](C)CC)[C@@H](C)CC)[C@@H](C)CC)[C@@H](C)CC)[C@@H](C)O)C(N)=O [compound 195]	93%		103 nM	18.8 nM
CC[C@H](C)[C@H](NC(=O)[C@@H](NC(=O)[C@H](CC(=O)O)NC(=O)[C@H](CC(C)C)NC(=O)[C@H](CC(C)C)NC(=O)[C@H](CC(C)C)NC(=O)[C@H](CCCNC(=N)N)NC(=O)[C@H](CC(N)=O)NC(=O)[C@H](CC(N)=O)NC(=O)[C@H](C)NC(=O)[C@H](C)NC(=O)[C@H](CCC(N)=O)NC(=O)[C@H](CCC(N)=O)NC(=O)[C@H](CCCCN)NC(=O)[C@H](CCC(=O)O)NC(=O)[C@H](CCCCN)NC(=O)[C@H](CCC(=O)O)NC(=O)[C@H](CCC(N)=O)NC(=O)[C@H](CCCCN)NC(=O)[C@H](CCC(=O)O)NC(=O)[C@@H](NC(=O)[C@H](CCC(=O)O)NC(=O)[C@@H](NC(=O)[C@H](CCSC)NC(=O)[C@H](CCCCN)NC(=O)[C@H](CCCNC(=N)N)NC(=O)[C@H](CC(C)C)NC(=O)[C@H](CC(C)C)NC(=O)[C@H](Cc1ccc(O)cc1)NC(=O)[C@H](CCC(=O)O)NC(=O)[C@@H]1CCCN1C(=O)[C@H](CC(C)C)NC(=O)[C@H](CC(=O)O)NC(=O)[C@@H](NC(=O)[C@H](CO)NC(=O)[C@@H](NC(=O)[C@@H]1CCCN1C(=O)[C@@H]1CCCN1C(=O)CNC(=O)[C@@H]1CCC(=O)N1)[C@@H](C)CC)[C@@H](C)CC)[C@@H](C)CC)[C@@H](C)CC)[C@@H](C)O)C(N)=O [compound 48]	21%	14%		
CC[C@H](C)[C@H](NC(=O)[C@@H](NC(=O)[C@H](C)NC(=O)[C@H](CC(C)C)NC(=O)[C@H](CC(C)C)NC(=O)[C@H](CC(C)C)NC(=O)[C@H](C)NC(=O)[C@H](CC(N)=O)NC(=O)[C@H](CC(N)=O)NC(=O)[C@H](C)NC(=O)[C@H](C)NC(=O)[C@H](CCC(N)=O)NC(=O)[C@H](CCC(N)=O)NC(=O)[C@H](CCCCN)NC(=O)[C@H](CCC(=O)O)NC(=O)[C@H](CCCCN)NC(=O)[C@H](CCC(=O)O)NC(=O)[C@H](CCC(N)=O)NC(=O)[C@H](CCCCN)NC(=O)[C@H](CCC(=O)O)NC(=O)[C@@H](NC(=O)[C@H](CCC(=O)O)NC(=O)[C@@H](NC(=O)[C@H](CCSC)NC(=O)[C@H](CCCCN)NC(=O)[C@H](CCCNC(=N)N)NC(=O)[C@H](CC(C)C)NC(=O)[C@H](CC(C)C)NC(=O)[C@H](CCC(=O)O)NC(=O)[C@H](CC(C)C)NC(=O)[C@H](CO)NC(=O)[C@H](CC(C)C)NC(=O)[C@H](CC(=O)O)NC(=O)[C@@H](NC(=O)[C@H](CO)NC(=O)[C@@H](NC(=O)[C@@H]1CCCN1C(=O)[C@@H]1CCCN1C(=O)CNC(=O)[C@@H]1CCC(=O)N1)[C@@H](C)CC)[C@@H](C)CC)[C@@H](C)CC)[C@@H](C)CC)[C@@H](C)O)C(N)=O [compound 30]	100%	85.5%		
